From patent US12091718B2, “Genetically encoded biosensors for detection of polyketides” (priority 2016, dated 2024)

The chains behind the UniProt entries cited, without tags or fusion partners.
UniProt Q9EVJ6, entry or part of it: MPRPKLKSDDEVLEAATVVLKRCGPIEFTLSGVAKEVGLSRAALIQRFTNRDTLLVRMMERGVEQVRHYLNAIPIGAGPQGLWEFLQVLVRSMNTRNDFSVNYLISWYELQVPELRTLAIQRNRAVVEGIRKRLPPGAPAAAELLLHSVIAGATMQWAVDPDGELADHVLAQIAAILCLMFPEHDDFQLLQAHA
UniProt Q9EVJ6, entry or part of it S106F: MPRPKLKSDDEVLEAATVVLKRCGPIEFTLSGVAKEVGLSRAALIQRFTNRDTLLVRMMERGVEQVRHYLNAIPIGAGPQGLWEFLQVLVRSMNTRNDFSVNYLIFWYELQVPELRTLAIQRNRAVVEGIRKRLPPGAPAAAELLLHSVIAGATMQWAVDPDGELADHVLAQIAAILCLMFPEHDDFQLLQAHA

Columns and labels:
Settings in all cases: Table 5
[1] = molecular target: wild-type MphR (MphR(A), macrolide biosensor transcription factor), SEQ ID NO: 2 (gene SEQ ID NO: 1, 28) (Escherichia coli, UniProt Q9EVJ6)
Description: (§1) The sensitivity of biosensors often requires tailoring to meet specific needs. […] A library of MphR gene mutations and variants was created by error-prone PCR (epPCR).
Molecular Biosystems. […] Previous literature reports various induction ranges for MphR-based biosensors depending on the plasmid construct.
Three and five site saturation mutagenesis libraries of the MphR gene that targeted residues of the ligand binding domain were generated using the Quikchange Multi Site-Directed mutagenesis kit (Agilent) and designated QCMS3 and QCMS5, respectively. A third library was generated via error-prone PCR (epPCR) with an average of two amino acid mutations per library clone. Libraries were transformed into E. coli TOP10 cells with plasmid pJZ12 (See FIG. 16 and sequence below) containing genes MphA and mrx and subjected to an initial round of negative sorting in the absence of added ligand via Fluorescence Activated Cell Sorting (FACS) to eliminate variants that are constitutively expressing GFP.
In Table 1, Hill functions were used to derive biosensor transfer functions. K1/2 is the inducer concentration at half maximal induction. Cooperativity is derived from the Hill function to indicate cooperative ligand binding between protein monomers of the MphR dimer. […] The linear range of detection is the linear portion of the dose-response curve with a slope R^2=0.95 or higher.

[2] = molecular target: T1, wild-type MphR with E7 ribosome binding site mutation only (WT E7-RBS; SEQ ID NO: 32) (Escherichia coli, UniProt Q9EVJ6); format: cell-based
T1 construct: GFP reporter in E. coli
Description: as §1
To confirm this, new versions of A3 and E7 were constructed that either only included the RBS mutations or the amino acids for each clone.

[3] = molecular target: T2, wild-type MphR with RBS mutations A1T/G2T/A3C (smRBS1A1, RBS TTCAGGT; SEQ ID NO: 53) (Escherichia coli, UniProt Q9EVJ6); test: MphR-GFP biosensor dose-response, smRBS1A1; format: cell-based
T2 construct: GFP reporter in E. coli
Description: as §1

[4] = molecular target: MphR variant S106F (pikB1, D3; SEQ ID NO: 10, 38) (Escherichia coli, UniProt Q9EVJ6, S106F); format: cell-based
Description: as §1
To test this, the aglycone 6-deoxyerythronolide B (6dEB) was produced via an engineered E. coli strain and purified by flash chromatography. […] To extend this to other systems, the ability of MphR was examined to detect macrolide antibiotics from S. venezuelae.
The ability of the MphR clone “PikB1” to detect a Solithromycin biosynthetic intermediate (see structure below) was determined.

In the case of `CC[C@H]1OC(=O)[C@H](C)C(=O)[C@H](C)[C@@H](O[C@@H]2O[C@H](C)C[C@H](N(C)C)[C@H]2O)[C@@H](C)C[C@@H](C)C(=O)/C=C/[C@]1(C)O` [pikromycin], the HillC [1] is reported as 2.9 ± 0.3, the HillC [2] is reported as 2.3 ± 0.1 and the HillC [3] is reported as 2.5 ± 0.2. The HillC [4] was 1.8 ± 0.2.
